The values below are quoted from earlier work in US20240050950A1, “GRADIENT-BASED MICROFLUIDIC CIRCUIT, DEVICE, AND METHOD FOR PERFORMING AN ASSAY” (priority 2020, published 2024).

For this series the following is noted: Table 1, antimicrobial agents/drugs; cited from earlier work.
Regarding Duramycin, the Molar volume is given as 1370.8 ± 5.0 cm^3.
On to Gentamicin, for which the Molar volume is given as 350.1 ± 5.0 cm^3.
Regarding Spiramycin, the Molar volume is given as 692.8 ± 5.0 cm^3.
